Values quoted from earlier work, collected in patent US20100135984A1, “Anti-inflammatory compositions and methods” (Searete LLC, a limited liability corporation of the State …, priority 2008, published 2010).

Sequences of proteins named here, by UniProt entry; tags and fusion partners are left off. Residues count along the entry.
UniProt P09619, 33-1106, species assumed: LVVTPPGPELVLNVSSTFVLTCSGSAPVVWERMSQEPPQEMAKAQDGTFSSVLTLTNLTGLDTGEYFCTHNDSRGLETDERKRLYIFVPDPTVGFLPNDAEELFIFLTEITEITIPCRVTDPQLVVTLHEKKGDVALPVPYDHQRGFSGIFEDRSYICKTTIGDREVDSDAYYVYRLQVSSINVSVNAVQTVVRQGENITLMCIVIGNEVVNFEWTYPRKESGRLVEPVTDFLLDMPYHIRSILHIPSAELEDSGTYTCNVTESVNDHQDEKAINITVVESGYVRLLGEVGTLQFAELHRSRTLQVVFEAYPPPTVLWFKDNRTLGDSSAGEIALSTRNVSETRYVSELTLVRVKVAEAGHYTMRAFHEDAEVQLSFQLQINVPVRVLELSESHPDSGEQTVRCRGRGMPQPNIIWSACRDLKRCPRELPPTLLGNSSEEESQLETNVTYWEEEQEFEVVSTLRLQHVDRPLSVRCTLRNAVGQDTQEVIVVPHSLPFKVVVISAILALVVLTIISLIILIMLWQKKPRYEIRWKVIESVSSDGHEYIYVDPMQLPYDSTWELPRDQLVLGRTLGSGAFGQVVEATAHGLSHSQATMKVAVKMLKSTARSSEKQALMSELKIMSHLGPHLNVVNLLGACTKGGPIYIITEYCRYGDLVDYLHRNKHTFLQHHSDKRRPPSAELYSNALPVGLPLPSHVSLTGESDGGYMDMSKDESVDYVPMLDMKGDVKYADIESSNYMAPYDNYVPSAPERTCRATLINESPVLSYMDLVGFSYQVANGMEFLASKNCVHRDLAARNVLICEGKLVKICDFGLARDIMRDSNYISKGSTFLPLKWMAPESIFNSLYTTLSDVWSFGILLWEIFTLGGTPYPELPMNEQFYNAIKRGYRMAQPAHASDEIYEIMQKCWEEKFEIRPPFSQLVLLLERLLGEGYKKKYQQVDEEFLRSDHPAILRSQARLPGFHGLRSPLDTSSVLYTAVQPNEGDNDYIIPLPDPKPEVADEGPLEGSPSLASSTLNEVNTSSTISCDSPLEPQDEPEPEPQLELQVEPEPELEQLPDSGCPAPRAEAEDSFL
UniProt P10721, 26-976: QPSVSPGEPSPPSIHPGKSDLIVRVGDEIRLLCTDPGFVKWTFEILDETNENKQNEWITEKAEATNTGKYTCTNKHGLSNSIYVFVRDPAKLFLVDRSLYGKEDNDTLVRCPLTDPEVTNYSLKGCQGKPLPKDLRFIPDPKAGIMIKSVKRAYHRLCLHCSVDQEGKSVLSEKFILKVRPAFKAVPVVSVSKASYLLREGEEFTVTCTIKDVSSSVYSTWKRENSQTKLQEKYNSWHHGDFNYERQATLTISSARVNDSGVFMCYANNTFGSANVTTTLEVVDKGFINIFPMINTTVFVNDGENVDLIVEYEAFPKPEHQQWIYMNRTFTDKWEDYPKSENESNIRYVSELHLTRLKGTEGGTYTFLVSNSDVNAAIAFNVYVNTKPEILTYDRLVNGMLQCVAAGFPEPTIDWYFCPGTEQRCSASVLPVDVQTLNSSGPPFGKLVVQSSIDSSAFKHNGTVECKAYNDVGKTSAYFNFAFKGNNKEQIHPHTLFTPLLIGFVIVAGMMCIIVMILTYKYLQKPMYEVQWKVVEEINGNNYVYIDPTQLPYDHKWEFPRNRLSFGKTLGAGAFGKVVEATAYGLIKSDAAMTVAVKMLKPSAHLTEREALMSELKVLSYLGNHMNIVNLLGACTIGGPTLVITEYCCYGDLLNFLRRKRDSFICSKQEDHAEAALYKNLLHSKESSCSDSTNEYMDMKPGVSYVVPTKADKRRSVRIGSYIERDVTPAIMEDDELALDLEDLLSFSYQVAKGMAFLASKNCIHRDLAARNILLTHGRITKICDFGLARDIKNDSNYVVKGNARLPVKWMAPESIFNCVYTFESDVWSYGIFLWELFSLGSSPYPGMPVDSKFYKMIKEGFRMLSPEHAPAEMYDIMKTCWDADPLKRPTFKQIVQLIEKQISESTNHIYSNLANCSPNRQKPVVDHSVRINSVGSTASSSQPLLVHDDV

Tests used:
PDGFRβ = PDGFRβ (Homo sapiens, UniProt P09619); details: at nanomolar concentrations
c-Kit = c-Kit (Homo sapiens, UniProt P10721); details: at nanomolar concentrations

## Cc1nc(Nc2ncc(C(=O)Nc3c(C)cccc3Cl)s2)cc(N2CCN(CCO)CC2)n1.O [dasatinib, N-(2-chloro-6-methylphenyl)-2-[[6-[4-(2-hydroxyethyl)-1-piperazinyl]-2-methyl-4-pyrimidinyl]amino]-5-thiazolecarboxamide, monohydrate]
PDGFRβ
  inhibition of PDGFRβ: inhibits
c-Kit
  inhibition of c-Kit: inhibits
